Reference: WO2001004269A1

By UniProt entry, the sequences of proteins in these tests, tags left out. Residues count along the entry.
UniProt P00451, 20-2351: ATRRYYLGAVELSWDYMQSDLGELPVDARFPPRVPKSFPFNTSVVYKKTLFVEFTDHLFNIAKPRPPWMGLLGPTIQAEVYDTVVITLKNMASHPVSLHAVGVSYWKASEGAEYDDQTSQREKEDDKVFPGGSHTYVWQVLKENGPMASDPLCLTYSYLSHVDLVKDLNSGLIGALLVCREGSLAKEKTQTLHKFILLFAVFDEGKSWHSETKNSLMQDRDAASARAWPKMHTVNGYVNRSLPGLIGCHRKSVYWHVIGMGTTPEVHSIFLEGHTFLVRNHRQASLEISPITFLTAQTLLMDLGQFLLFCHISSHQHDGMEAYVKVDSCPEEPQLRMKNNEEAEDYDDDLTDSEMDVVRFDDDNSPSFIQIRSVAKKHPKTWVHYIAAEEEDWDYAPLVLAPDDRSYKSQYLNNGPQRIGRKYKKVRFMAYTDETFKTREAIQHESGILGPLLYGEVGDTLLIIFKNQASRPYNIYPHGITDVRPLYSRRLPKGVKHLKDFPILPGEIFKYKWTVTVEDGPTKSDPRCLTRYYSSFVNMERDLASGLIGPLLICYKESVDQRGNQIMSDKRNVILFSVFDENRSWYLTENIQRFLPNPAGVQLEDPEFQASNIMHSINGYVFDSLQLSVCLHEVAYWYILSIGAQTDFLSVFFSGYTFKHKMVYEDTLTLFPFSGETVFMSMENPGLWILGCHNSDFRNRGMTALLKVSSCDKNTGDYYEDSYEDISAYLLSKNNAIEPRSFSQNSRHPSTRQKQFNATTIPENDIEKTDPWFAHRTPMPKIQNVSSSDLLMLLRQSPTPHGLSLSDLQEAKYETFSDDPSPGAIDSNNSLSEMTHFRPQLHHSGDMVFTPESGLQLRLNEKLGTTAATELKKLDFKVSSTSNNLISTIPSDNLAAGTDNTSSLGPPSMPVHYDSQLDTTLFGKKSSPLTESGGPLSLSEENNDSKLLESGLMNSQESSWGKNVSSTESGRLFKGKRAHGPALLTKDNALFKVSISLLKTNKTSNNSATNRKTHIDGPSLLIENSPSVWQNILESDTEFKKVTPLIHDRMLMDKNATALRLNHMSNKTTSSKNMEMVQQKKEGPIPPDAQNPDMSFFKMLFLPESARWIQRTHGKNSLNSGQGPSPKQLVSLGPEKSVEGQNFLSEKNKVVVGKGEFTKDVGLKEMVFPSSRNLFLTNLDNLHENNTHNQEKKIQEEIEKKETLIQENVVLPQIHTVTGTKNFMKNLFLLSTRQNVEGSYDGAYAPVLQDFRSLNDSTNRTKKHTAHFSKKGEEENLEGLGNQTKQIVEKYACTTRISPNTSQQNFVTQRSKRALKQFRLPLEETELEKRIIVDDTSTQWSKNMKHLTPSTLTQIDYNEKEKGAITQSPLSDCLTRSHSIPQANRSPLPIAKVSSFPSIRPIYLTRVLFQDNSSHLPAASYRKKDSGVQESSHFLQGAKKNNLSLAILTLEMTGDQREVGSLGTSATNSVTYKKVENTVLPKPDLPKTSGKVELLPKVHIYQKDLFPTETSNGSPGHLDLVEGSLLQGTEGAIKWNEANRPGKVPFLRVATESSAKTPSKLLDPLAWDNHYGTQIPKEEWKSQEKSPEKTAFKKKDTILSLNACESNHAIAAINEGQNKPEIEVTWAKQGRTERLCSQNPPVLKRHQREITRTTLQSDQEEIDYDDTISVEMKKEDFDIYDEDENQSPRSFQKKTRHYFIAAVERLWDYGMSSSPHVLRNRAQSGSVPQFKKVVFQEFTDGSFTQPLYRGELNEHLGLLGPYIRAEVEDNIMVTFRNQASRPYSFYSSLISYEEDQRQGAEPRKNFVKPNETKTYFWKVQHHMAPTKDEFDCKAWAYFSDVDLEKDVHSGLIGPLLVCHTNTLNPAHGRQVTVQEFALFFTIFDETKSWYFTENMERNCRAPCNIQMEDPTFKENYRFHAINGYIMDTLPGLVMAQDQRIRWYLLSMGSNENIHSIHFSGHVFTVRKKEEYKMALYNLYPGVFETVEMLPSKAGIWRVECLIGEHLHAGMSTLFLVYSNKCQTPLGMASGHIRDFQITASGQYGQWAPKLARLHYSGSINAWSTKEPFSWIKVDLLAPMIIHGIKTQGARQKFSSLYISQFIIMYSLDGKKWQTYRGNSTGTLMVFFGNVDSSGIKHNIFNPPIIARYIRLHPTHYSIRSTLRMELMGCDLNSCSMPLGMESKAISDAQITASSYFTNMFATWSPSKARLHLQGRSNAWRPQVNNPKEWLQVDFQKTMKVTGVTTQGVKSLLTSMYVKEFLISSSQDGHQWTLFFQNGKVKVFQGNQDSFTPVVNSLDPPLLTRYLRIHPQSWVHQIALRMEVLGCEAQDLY

Molecular target: factor VIII of a pool of normal plasma (human) (UniProt P00451)
Assay: cell-based or functional assay

clotting time as measured by aPTT: 110 s
Substance: human monoclonal antibody BO2C11
